From patent US10202330B2 (dated 2019) come the findings set out here.

The structures appear in SMILES notation. Where a name gives a salt, the structure may show the parent alone.

This test deals with human colon cancer cell line HCT116. Nature of the test: Cancer cell line study, alamarBlue viability assay. To be noted: HCT-116, 72 h, read-out: EC50 (dose required to inhibit cell growth by 50%). The format is cell-based.
For the molecule `COc1ccc2c(c1)C(N[C@H]1CC1c1ccc(OCc3ccccc3)cc1)CC2` (stereo in doubt) [Example 1, N-((trans)-2-(4-(benzyloxy)phenyl)cyclopropyl)-6-methoxy-2,3-dihydro-1H-inden-1-amine hydrochloride], the EC50 is about 37.7 µM.

In the case of `COc1cc2c(cc1OC)C(N[C@H]1CC1c1ccc(OCc3ccccc3)cc1)CC2` (stereo in doubt) [Example 2, N-((trans)-2-(4-(benzyloxy)phenyl)cyclopropyl)-5,6-dimethoxy-2,3-dihydro-1H-inden-1-amine hydrochloride], the EC50 is about 50 µM.

For `COc1ccc2c(c1)C(N[C@H]1CC1c1ccc(-c3cccc(Cl)c3)cc1)CC2` (stereo in doubt) [Example 9, N-((trans)-2-(3′-chlorobiphenyl-4-yl)cyclopropyl)-6-methoxy-2,3-dihydro-1H-inden-1-amine hydrochloride], the EC50 was about 35.1 µM.

With `COc1cccc(-c2ccc(C3C[C@@H]3NC3CCc4ccc(OC)cc43)cc2)c1` (stereo in doubt) [Example 11, 6-methoxy-N-((trans)-2-(3′-methoxybiphenyl-4-yl)cyclopropyl)-2,3-dihydro-1H-inden-1-amine hydrochloride], the EC50 was about 22.3 µM.

For `c1ccc(C2C[C@@H]2NCCC2CCCCC2)cc1` (stereo partly drawn) [Example 12, N-trans-(2-cyclohexylethyl)-2-phenylcyclopropanamine hydrochloride], the EC50 is about 63.8 µM.
